In the assay the target is T1, HiBit-BRG1 fusion protein (Homo sapiens, UniProt P51532).
T1 construct: expressed in transfected cells
The assay is described as follows: HiBiT-BRG1 cell-based degradation assay (Nano-Glo HiBiT Lytic Detection, 24 h). The settings on record: HeLa cell line expressing HiBit-BRG1 and LgBit, read-out: BRG1 HiBit Degradation Maximum (%). As to the method:
Procedure: A stable HeLa cell line expressing HiBiT-BRM was generated. On day 0, 5000 cells were seeded in 40 μL of media into each well of 384-well cell culture plates. […] Subsequently plates were incubated for 24 h in a standard tissue culture incubator and equilibrated at room temperature for 15 minutes. Nano-Glo HiBiT Lytic Detection System (Promega N3050) reagent was freshly prepared and 20 ul was added to each well. Upon addition of this LgBit-containing reagent, the HiBiT and LgBiT proteins associate to form the luminescent NanoBiT luciferase. The plates were shaken for 10 minutes at room temperature and the bioluminescence read using an EnVision plate reader (PerkinElmer).
For measurement of BRG1 degradation, a stable HeLa cell line expressing HiBit-BRG1 and LgBit was generated. The same protocol as above was then followed.
The degradation % was calculated using the following formula: % degradation=100%−100%×(LumSample−LumLC)/(LumHC−LumLC). DMSO treated cells are employed as High Control (HC) and 2 μM of a known BRM/BRG1 degrader standard treated cells are employed as Low Control (LC).
On the technique in general: With HiBiT, luminescence reflects the tagged protein that the partner subunit can reach.

By UniProt entry, the sequences of proteins in these tests, tags left out.
UniProt P51532, whole entry: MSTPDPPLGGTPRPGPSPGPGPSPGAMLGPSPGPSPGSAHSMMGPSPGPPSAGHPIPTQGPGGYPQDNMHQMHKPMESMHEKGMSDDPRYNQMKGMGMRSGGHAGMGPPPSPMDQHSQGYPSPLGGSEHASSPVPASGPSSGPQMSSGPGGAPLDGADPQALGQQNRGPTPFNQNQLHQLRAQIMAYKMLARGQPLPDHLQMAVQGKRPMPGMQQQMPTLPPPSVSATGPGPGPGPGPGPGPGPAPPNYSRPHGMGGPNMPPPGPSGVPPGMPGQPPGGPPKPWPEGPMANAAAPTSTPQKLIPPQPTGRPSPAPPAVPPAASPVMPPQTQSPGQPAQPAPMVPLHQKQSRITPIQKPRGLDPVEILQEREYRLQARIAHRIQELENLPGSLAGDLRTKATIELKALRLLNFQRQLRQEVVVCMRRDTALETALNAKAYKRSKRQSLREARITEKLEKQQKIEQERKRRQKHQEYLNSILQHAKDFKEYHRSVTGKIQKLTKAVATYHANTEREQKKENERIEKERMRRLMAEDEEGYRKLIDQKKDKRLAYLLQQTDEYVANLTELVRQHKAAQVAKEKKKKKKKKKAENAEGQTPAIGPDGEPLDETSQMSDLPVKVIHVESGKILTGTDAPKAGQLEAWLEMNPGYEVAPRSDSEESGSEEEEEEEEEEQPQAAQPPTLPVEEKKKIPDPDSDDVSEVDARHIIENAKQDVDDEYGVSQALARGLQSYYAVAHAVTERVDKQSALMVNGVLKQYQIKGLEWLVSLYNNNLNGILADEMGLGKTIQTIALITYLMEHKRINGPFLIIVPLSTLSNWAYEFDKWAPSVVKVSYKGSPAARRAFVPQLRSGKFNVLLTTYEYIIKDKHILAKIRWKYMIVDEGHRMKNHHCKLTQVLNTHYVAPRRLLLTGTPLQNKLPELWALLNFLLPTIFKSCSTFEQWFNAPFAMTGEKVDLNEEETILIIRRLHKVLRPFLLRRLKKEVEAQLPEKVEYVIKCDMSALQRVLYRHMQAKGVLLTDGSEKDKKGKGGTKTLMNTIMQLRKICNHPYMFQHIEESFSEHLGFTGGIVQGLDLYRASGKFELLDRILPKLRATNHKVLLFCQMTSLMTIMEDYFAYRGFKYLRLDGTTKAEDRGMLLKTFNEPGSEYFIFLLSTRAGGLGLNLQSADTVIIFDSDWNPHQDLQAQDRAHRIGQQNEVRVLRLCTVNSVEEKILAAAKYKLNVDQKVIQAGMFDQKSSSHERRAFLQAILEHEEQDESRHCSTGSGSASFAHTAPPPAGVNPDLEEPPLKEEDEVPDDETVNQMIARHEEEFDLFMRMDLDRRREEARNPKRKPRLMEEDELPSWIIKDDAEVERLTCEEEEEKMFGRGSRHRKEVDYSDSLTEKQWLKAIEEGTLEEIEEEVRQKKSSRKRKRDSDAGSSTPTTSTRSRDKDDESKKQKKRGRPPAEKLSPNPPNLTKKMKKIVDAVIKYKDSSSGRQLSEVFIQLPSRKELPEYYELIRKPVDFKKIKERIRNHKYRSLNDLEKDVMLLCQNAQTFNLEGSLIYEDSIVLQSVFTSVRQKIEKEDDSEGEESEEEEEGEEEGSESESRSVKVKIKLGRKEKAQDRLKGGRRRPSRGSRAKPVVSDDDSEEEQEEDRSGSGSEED

Each structure is given as a SMILES string. A value given as a limit tells only on which side of the number the result lay.

`Cc1ncsc1-c1ccc([C@H](C)NC(=O)[C@@H]2C[C@@H](O)CN2C(=O)[C@H](c2cc(OCCN3CC(c4cc5cc(-c6ccccc6O)nnc5[nH]4)C3)no2)C(C)C)cc1` (racemic) [Compound 62, (2S,4R)-4-hydroxy-1-((S)-2-(3-(2-(3-(3-(2-hydroxyphenyl)-7H-pyrrolo[2,3-c]pyridazin-6-yl)azetidin-1-yl)ethoxy)isoxazol-5-yl)-3-methylbutanoyl)-N-((S)-1-(4-(4-methylthiazol-5-yl)phenyl)ethyl)pyrrolidine-2-carboxamide]: the Dmax is less than 50%.

(Values after patent publication US20240024488A1, “COMPOUNDS AND USES THEREOF” (Foghorn Therapeutics Inc., priority 2020, published 2024).)
